Our source for the Km and kcat values is publication doi:10.1101/2025.11.21.689824v1.

In this data set the test system is O=C(O)C[C@H](O)C(=O)O. As to the kind of experiment: purified protein. The settings on record: 50 mM NAD+, potassium phosphate buffer, 1 nM enzyme.

Regarding “WT MDH (malate dehydrogenase) (Escherichia coli K-12)”, the Km is 1300 ± 150 µM and the kcat came to 20.6 ± 2.4 s⁻¹.

A word on the Km: it is the concentration of substrate that gives half-maximal velocity. As usually defined, the kcat is the maximal rate divided by the concentration of active sites.
